Earlier results, collected in publication PMC7606641 (Biochemical pharmacology, 2020).

Details: hormones crossing the BBB; cited from earlier work

insulin
Percentage of injected dose entering the brain (%Inj/g): 0.046%
